{"sequences": {"note": "Chains of the proteins cited; added tags and fusions are not shown.", "UniProt Q9Y5K5, whole entry, looked up": "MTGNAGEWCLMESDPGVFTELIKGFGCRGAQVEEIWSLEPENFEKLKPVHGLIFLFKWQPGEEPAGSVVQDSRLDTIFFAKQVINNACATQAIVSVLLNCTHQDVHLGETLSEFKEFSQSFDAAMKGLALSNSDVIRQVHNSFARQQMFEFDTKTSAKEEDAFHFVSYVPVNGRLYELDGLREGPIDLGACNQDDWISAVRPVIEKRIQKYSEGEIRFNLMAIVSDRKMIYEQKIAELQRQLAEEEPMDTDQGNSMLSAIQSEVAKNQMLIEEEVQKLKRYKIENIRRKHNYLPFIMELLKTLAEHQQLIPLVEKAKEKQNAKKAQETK"}, "source": "PubChem BioAssay AID588478", "about": "(ICCB-Longwood Screening Facility, Harvard Medical School, 2011)", "note": "The entries are a selection whose mix differs from that of the whole data set. Calls of active or inactive are those of the source.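 Rule for the calls: active = mean inhibition over replicate wells above about 20% (limit read from the data); inactive = the rest.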", "data": [{"target": "Ubiquitin carboxyl-terminal hydrolase isozyme L5 (Homo sapiens) (UniProt Q9Y5K5)", "assay": "proteasome-bound UCH37 DUB activity blockers – biochemical, Ub-AMC cleavage, fluorescence, primary screen (AID 588478);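 note: 0% = compound-free wells with enzyme and 100% = wells lacking proteasome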", "details": "purified proteasome/UCH37, Ub-AMC cleavage fluorescence; stronger effect = higher value; concentration not given here", "procedure,_shortened": "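Signal – fluorescence, ex 355 nm, em 460 nm · System – Proteasome-bound UCH37 · Input – 0.15 nM proteasome as dispensed · Timing – 30 min preincubation with enzyme, 25 min cleavage at room temperature · Read-out basis – percent inhibition of cleavage signal versus uninhibited and no-proteasome wells · Medium – Tris-HCl pH 7.4 with ATP-MgCl2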", "values": [{"smiles": "CC(=O)Nc1ccc(Oc2c([N+](=O)[O-])cc([N+](=O)[O-])cc2[N+](=O)[O-])cc1", "inhibition": "active: 20.7%"}, {"smiles": "O=[N+]([O-])c1ccc(-c2cc([N+](=O)[O-])c(O)c([N+](=O)[O-])c2)cc1", "inhibition": "active: 20.5%"}]}]}
